# AlphaSeq binding of Ab-14 light chain variants to a spike HR2 peptide

Data: MIT Lincoln Laboratory AlphaSeq set, Engelhart et al. 2022, doi:10.1038/s41597-022-01779-4, as distributed in FLAb.

Target peptide (SARS-CoV-2 spike, HR2 region): PDVDLGDISGINAS

Parent: Ab-14, a human scFv built as VH, three GGGGS repeats, VL. Only the CDRs of the light chain vary.
VH: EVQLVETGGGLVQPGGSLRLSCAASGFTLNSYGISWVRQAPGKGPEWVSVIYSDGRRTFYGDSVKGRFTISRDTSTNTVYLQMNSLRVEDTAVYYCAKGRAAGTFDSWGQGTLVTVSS
VL: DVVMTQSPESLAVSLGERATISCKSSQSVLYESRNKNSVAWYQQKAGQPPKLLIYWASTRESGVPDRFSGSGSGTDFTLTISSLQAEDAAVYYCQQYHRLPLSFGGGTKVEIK

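Phage display of a naive human antibody library on the peptide gave the parent. Variants in AAYL50 differ from the parent at up to three CDR positions; double and triple changes were sampled at random. The assay is AlphaSeq: two haploid yeast populations carry antibody and antigen on their surface. The frequency of each diploid, read from paired DNA barcodes, reflects how well the two displayed proteins bind. Scores were corrected for input abundance and mapped to Kd with protein pairs of known affinity run in the same pool. There are three technical replicates.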

Each variant is given by its three light chain CDRs, as the data file delimits them; those of the parent are KSSQSVLYESRNKNSVA, WASTRES, QQYHRLPLS. Values are log10 of the apparent Kd in nM; lower means stronger binding. A mean of the replicates is given; it leaves out those without a signal. A pair that was not seen in any replicate is written "nd"; this usually means weak binding, but a binder can also be missed. For reference, the parent read 0.65 as the reference entry and 1.68 as a member of this library. As a blank, each scFv also met three strains without target: over library AAYL50, 18% of these pairings were detected, typically at 4.19 and seldom below 2.99. The control count says in how many pairings with the empty strains this scFv gave a signal.

Read-out 4.21 (1 of 3 replicates; controls 0 of 9), from QSSQSVLYEYRNKNSVA / WASTREH / QQYHRLPLS.
Read-out nd (0 of 3 replicates; controls 0 of 9), from KSSCSVLYESRNKNSVP / WASTAES / QQYHRLPLS.
Read-out nd (0 of 3 replicates; controls 0 of 9), from KSSQSVLYESRNNNSVA / WASTRES / VQYHRLSLS.
Read-out 3.62 (2 of 3 replicates; controls 3 of 9), from KSSQQDLYESRNKNSGA / WASTRES / QQYHRLPLS.
Read-out 2.07 (3 of 3 replicates; controls 3 of 9), from KSSQPVLYESRNKNSVA / WASWRES / QQYHNLPLS.
Read-out 4.00 (2 of 3 replicates; controls 2 of 9), from KSSQSVLYESRNKNSVA / WASTRNS / QQYHSLPLK.
Read-out 4.14 (3 of 3 replicates; controls 1 of 9), from KSSQDVLYESRNKNYVA / WASTRES / QQNHRLPLS.
Read-out 3.79 (1 of 3 replicates; controls 3 of 9), from KSSQSVLHESRNKNSEA / WASTRES / QQYFRLPLS.
Read-out 3.62 (1 of 3 replicates; controls 2 of 9), from KRSQSVLYISRNKNSVA / WASTRES / GQYHRLPLS.
Read-out 3.47 (1 of 3 replicates; controls 0 of 9), from KSMQSVLYEDRNKNSVA / WASTRES / QQYHRLPLS.
Read-out nd (0 of 3 replicates; controls 0 of 9), from KSSQMVLYESRNKNSHA / WASTRES / QQYHRLVLS.
Read-out nd (0 of 3 replicates; controls 0 of 9), from KSSQAVLYESRNKNSVA / WASTRES / QQYHRLYLS.
Read-out 0.76 (3 of 3 replicates; controls 1 of 9), from KSSQSVLCESINKNSVA / KASTRES / QQYHRLPLS.
Read-out 4.68 (1 of 3 replicates; controls 0 of 9), from GSYQSVLYESRNKNSRA / WASTRES / QQYHRLPLS.
Read-out 3.62 (2 of 3 replicates; controls 5 of 9), from GSSPSVLYESRNKNSVA / WASTRES / QWYHRLPLS.
Read-out nd (0 of 3 replicates; controls 0 of 9), from KSSQSVEYESRNKNSVA / WASTFES / YQYHRLPLS.
Read-out 0.28 (3 of 3 replicates; controls 5 of 9), from KSSQSSLYESRNKPSVA / SASTRES / QQYHRLPLS.
Read-out 3.79 (2 of 3 replicates; controls 3 of 9), from KSQQSVLYESRNKNSSA / WASTRES / QCYHRLPLS.
Read-out 2.11 (3 of 3 replicates; controls 0 of 9), from KSSKSVLYESRNKNSVA / WVSTRFS / QQYHRLPLS.
Read-out 4.16 (3 of 3 replicates; controls 4 of 9), from PSSQSVLYESRNKNSVA / WASTRES / QQFHGLPLS.
Read-out 0.67 (3 of 3 replicates; controls 1 of 9), from KSSQSVLYESRNKNSVA / WASTRES / QQYHSMVLS.
Read-out 3.19 (1 of 3 replicates; controls 2 of 9), from KSSQSVGYEPRNKNSVA / WAPTRES / QQYHRLPLS.
Read-out nd (0 of 3 replicates; controls 3 of 9), from KSSQSVLYESRNKHLVD / WASTRES / QQYHRLPLS.
Read-out nd (0 of 3 replicates; controls 0 of 9), from KSSQSVLTESRNQNSVA / WASTRES / QRYHRLPLS.
Read-out nd (0 of 3 replicates; controls 0 of 9), from KSSQSVLLESRNKYSVA / WASTRES / QQYHRLPHS.
Read-out nd (0 of 3 replicates; controls 3 of 9), from KSSVSVLYESRNKNSVA / WASTRES / CQYHRLPLS.
Read-out 2.07 (3 of 3 replicates; controls 0 of 9), from KSSQSMLYESRNKSSVA / WMSTRES / QQYHRLPLS.
Read-out nd (0 of 3 replicates; controls 0 of 9), from KSSQSVLYESRNKNHVA / WAKTRES / QGYHRLPLS.
Read-out 4.82 (2 of 3 replicates; controls 2 of 9), from KSSQSVLYGSRNKNSVA / WASTQES / QQYKRLPLS.
Read-out 3.87 (1 of 3 replicates; controls 0 of 9), from KSSQSVLNESRNKNSVA / WASTREN / RQYHRLPLS.
Read-out 2.54 (3 of 3 replicates; controls 1 of 9), from KSHQSVLYESANKNSVA / WKSTRES / QQYHRLPLS.
Read-out nd (0 of 3 replicates; controls 4 of 9), from KSSWMVLYCSRNKNSVA / WASTRES / QQYHRLPLS.
Read-out 1.47 (3 of 3 replicates; controls 3 of 9), from KSSQSVLYWSRNKDSVA / WASTRES / QQYGRLPLS.
Read-out 3.52 (2 of 3 replicates; controls 0 of 9), from KSSQSVLYESRNKCSVA / WASTRES / DQYHRLPLP.
Read-out 4.55 (3 of 3 replicates; controls 5 of 9), from KSGQSVLYESRNKNSVA / WASHRES / QQVHRLPLS.
Read-out 2.49 (3 of 3 replicates; controls 3 of 9), from KCSQSVLYESRNKNSVA / WASTRES / QQYHRLPTL.
Read-out 0.85 (3 of 3 replicates; controls 4 of 9), from KFSQSVLYESRNKNSVA / WASTRES / QQLHRLPLS.
Read-out nd (0 of 3 replicates; controls 1 of 9), from KSSRSVLYEKRNKNSVA / WASTRES / QQYHRLELS.
Read-out 3.59 (2 of 3 replicates; controls 1 of 9), from KSSQSVPYESRRKNTVA / WASTRES / QQYHRLPLS.
Read-out 2.54 (3 of 3 replicates; controls 3 of 9), from KSSQSVLYQSRNKNSVA / WAWTRES / QQYHRLPLS.
Read-out 2.78 (1 of 3 replicates; controls 0 of 9), from KSSQSMVYESRWKNSVA / WASTRES / QQYHRLPLS.
Read-out 2.30 (3 of 3 replicates; controls 1 of 9), from KSSQSVLYFSRNYNSVA / WASTRES / QQYRRLPLS.
Read-out nd (0 of 3 replicates; controls 0 of 9), from KSSQSVLYMTRNKNSVA / WASTSES / QQYHRLPLS.
Read-out nd (0 of 3 replicates; controls 0 of 9), from KESQSQLYESRNKNSVA / WNSTRES / QQYHRLPLS.
Read-out nd (0 of 3 replicates; controls 0 of 9), from KSSQSVLYESRNKNSVA / WASTTES / QQYHREPLW.